Legend:
[1] = target: T1, Amine oxidase [flavin-containing] A (Homo sapiens, UniProt P21397)
[2] = target: T1, Amine oxidase [flavin-containing] A; assay: Inhibition of recombinant human MAO-A using p-tyramine as substrate preincubated for 15 mins followed by substrate addition measured after 20 mins by amplex red reagent based fluorescence assay

By UniProt entry, the sequences of proteins in these tests, tags left out.
UniProt P21397, whole entry: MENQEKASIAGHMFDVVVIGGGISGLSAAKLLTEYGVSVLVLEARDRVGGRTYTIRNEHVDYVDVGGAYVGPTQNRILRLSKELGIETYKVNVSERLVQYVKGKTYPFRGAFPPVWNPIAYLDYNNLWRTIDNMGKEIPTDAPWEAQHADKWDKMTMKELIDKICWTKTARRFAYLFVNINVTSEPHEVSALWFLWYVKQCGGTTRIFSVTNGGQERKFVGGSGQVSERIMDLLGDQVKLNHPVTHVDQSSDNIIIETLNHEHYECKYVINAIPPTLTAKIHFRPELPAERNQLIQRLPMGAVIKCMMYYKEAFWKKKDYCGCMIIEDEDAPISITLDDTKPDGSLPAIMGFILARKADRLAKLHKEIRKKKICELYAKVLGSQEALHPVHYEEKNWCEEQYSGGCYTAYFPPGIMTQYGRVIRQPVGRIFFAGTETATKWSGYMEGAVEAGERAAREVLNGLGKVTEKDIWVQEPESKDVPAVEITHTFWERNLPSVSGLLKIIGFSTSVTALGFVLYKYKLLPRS

## C#CCN(C)Cc1ccccc1 [PARGYLINE]
[1]
  IC50: 0.0115 µM
[2]
  IC50: 3.52 µM
